The values that follow come from publication PMC2747018.

Broadly, the stoichiometry N is the number of molecules, sites or subunits per partner or assembly.

The assay deals with U1-A protein of the native human U1 snRNP (human (endogenous in HeLa)) (UniProt P09012). In words: native MS; nano ESI-MS of the intact U1 snRNP purified from HeLa cells, 200 mM ammonium acetate, Q-ToF2, collision cell 100 V; the complex holds U1 snRNA.

The substance “Sm-B (from UniProt P14678-2 1-231) (natural protein; other documents disagree on this pair)” gave a stoichiometry N of 1.

In turn, “Sm-B' (from UniProt P14678 1-240) (natural protein; other documents disagree on this pair)” had a stoichiometry N of 1.
